Yeast mating assay 1: variants of the scFv Ab-14

Values reported by Engelhart et al. 2022, doi:10.1038/s41597-022-01779-4 (FLAb copy).

Antigen: PDVDLGDISGINAS, a 14-residue peptide of the SARS-CoV-2 spike HR2 region.

Each scFv is VH, a (GGGGS)3 linker, VL, as in the parent Ab-14, and differs from it in the CDRs of the heavy chain only.
VH: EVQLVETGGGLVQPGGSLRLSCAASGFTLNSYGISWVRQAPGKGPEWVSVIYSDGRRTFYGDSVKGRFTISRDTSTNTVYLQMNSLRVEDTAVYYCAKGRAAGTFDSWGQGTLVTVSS
VL: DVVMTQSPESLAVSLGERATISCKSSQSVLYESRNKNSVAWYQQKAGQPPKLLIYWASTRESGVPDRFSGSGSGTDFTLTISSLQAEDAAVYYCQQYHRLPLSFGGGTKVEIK

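The parent was found by panning a naive human phage display library on the peptide. Library AAYL49 holds single substitutions and randomly drawn double and triple substitutions in the CDRs. The assay is AlphaSeq: two haploid yeast populations carry antibody and antigen on their surface. After mating in shaken culture at 30 °C for 16 h, diploids were selected and their barcode pairs sequenced. Scores were corrected for input abundance and mapped to Kd with protein pairs of known affinity run in the same pool. There are three technical replicates.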

The parent's heavy chain CDRs are GFTLNSYGIS, VIYSDGRRTFYGDSVK, GRAAGTFDS; each variant's own CDRs replace them letter for letter. Affinities are written as log10 Kd with Kd in nM; a lower number is a better binder. "n.d." marks a missing value. The strain was present, yet no cells mated with the target were sequenced in that replicate, which points to weak or no binding. For reference, the parent read 0.65 as the reference entry and 4.11 (one replicate of three) as a member of this library. As a blank, each scFv also met three strains without target: over library AAYL49, 15% of these pairings were detected, typically at 4.06 and seldom below 2.83. The control count says in how many pairings with the empty strains this scFv gave a signal, with their mean in brackets.

CDR-H1	CDR-H2	CDR-H3	log10 Kd, replicates	signal with controls
GFTYNWYGIS	VIYSDGRRTFYGDSVK	GRAGGTFDS	n.d. / n.d. / n.d.	2 of 9 (3.29)
FFTLNSYGIS	VIYSDGRRTFYGDSYK	GRAAGTFVS	n.d. / n.d. / n.d.	0 of 9
GFHLNSYGIS	VIYSDWRRPFYGDSVK	GRAAGTFDS	n.d. / n.d. / n.d.	1 of 9 (3.33)
GITLNPTGIS	VIYSDGRRTFYGDSVK	GRAAGTFDS	n.d. / 4.38 / n.d.	1 of 9 (4.21)
GFTLVSYGIS	VIYSDGRRTFYGDHVK	GRAGGTFDS	n.d. / n.d. / n.d.	0 of 9
GGTLNSYGIS	VIYSDGRRTFYGDSVG	NRAAGTFDS	4.51 / 4.01 / n.d.	3 of 9 (3.60)
GFTLNSYGIS	VIYSDGRRTFYGDSVK	GEAAGTFDW	0.64 / 0.91 / 0.89	1 of 9 (2.99)
GFTLNSYGIS	VIYIDGRRTFYWDSVK	VRAAGTFDS	n.d. / 3.55 / n.d.	0 of 9
GFTLNQYGIS	VMYDDGRRTFYGDSVK	GRAAGTFDS	n.d. / n.d. / n.d.	0 of 9
GFTLNTNGIS	VIYSDGRWTFYGDSVK	GRAAGTFDS	n.d. / n.d. / n.d.	0 of 9
GFTLWWYTIS	VIYSDGRRTFYGDSVK	GRAAGTFDS	n.d. / n.d. / n.d.	3 of 9 (4.72)
GETLNSYGIS	VILSDGRRTFYGDSVK	GRAAGTFDS	n.d. / 3.85 / n.d.	4 of 9 (4.41)
GFTLNSYGIS	VIYSFGRRTFYGDSVK	GRAIGTEDS	n.d. / n.d. / n.d.	0 of 9
GFTLNSYGIS	VLYSDGRRTFPGDSVK	TRAAGTFDS	5.20 / 4.95 / 6.29	9 of 9 (4.73)
GFTNNSYGIS	VIYSDGRRTFYGDVVK	GRAAGTFDS	n.d. / 4.98 / n.d.	5 of 9 (4.17)
GFTLNSYGIS	VIYSDGCRTFYGDSVK	GRAAGTFWS	2.09 / 2.03 / 1.88	1 of 9 (5.18)
GFTLNSCGIS	VIYSDHRRTFYGDSIK	GRAAGTFDS	n.d. / n.d. / n.d.	0 of 9
GFPLNSYGIS	VIYSDGRMTFYGDSVK	GRAADTFDS	n.d. / n.d. / n.d.	0 of 9
GFTLNSYGIS	VIYSDGRRTFYVDSVK	GRAAGTFDS	0.84 / 0.94 / 0.83	1 of 9 (4.02)
GFTLNSYGDS	VMYSHGRRTFYGDSVK	GRAAGTFDS	n.d. / n.d. / n.d.	1 of 9 (3.53)
GFTLNSLGIS	EIYSDGRRTFYGDSVK	GRFAGTFDS	n.d. / n.d. / 4.86	5 of 9 (3.81)
GFTLNSYGIS	VIYSDGARTFYVDPVK	GRAAGTFDS	2.07 / 1.95 / 2.47	3 of 9 (6.11)
GFTLNFYGIS	VIYSDGRRTFYGDEVK	GRACGTFDS	n.d. / n.d. / n.d.	2 of 9 (3.20)
GYTLNSYGIS	VIYSDGRRTFYGDSVK	GRAAGTFDS	1.53 / 1.55 / 1.97	1 of 9 (4.76)
GFTLNSYGIS	VIYSDGRRTFYGDSVR	GRAQGTHDS	1.43 / 1.07 / 1.11	1 of 9 (3.62)
GFTLNSYGIS	VIGSWGRRTFYGDSVK	GRAAGRFDS	n.d. / n.d. / n.d.	2 of 9 (2.99)
GYTLNSYGIS	VIYSDGRRTFYGMSVK	CRAAGTFDS	n.d. / n.d. / n.d.	0 of 9
GFTLNSYGIS	VIYSDIRYTFYGDSVK	GRAAGTFDQ	n.d. / 4.56 / n.d.	1 of 9 (3.32)
GFTLSSYGIS	QIYSDGRRTFYCDSVK	GRAAGTFDS	n.d. / n.d. / n.d.	2 of 9 (4.03)
GFTLNSEGIS	VISSDGRRTFYGDSVK	GRAAGCFDS	n.d. / n.d. / n.d.	2 of 9 (4.42)
GFTLISYGIM	VIYSDGRRTFYGDSVK	GRAANTFDS	n.d. / n.d. / n.d.	0 of 9
GFTLNSYHIS	VIYSDGRRTIYGDSVK	GRAAGTFDS	n.d. / n.d. / n.d.	0 of 9
GFTLNSYGIS	VINSDGRSTFYGDSSK	GRAAGTFDS	n.d. / n.d. / 4.71	2 of 9 (3.93)
GFTLNSYGIY	VIYSDGRRTFYGDSVF	GRAAGTFDS	n.d. / n.d. / 3.75	2 of 9 (3.78)

The first 5 entries again:

CDR-H1	CDR-H2	CDR-H3	log10 Kd, replicates	signal with controls
GFTYNWYGIS	VIYSDGRRTFYGDSVK	GRAGGTFDS	n.d. / n.d. / n.d.	2 of 9 (3.29)
FFTLNSYGIS	VIYSDGRRTFYGDSYK	GRAAGTFVS	n.d. / n.d. / n.d.	0 of 9
GFHLNSYGIS	VIYSDWRRPFYGDSVK	GRAAGTFDS	n.d. / n.d. / n.d.	1 of 9 (3.33)
GITLNPTGIS	VIYSDGRRTFYGDSVK	GRAAGTFDS	n.d. / 4.38 / n.d.	1 of 9 (4.21)
GFTLVSYGIS	VIYSDGRRTFYGDHVK	GRAGGTFDS	n.d. / n.d. / n.d.	0 of 9